Read-outs that look alike come from different tables or passages of the source.
How the values were obtained:
[1] = target: BRM (Homo sapiens, UniProt P51531); assay: ATPase catalytic activity of BRM, ADP-Glo in vitro biochemical assay; conditions: for IC50: read-out: BRM IC50, 30 nM BRM, 400 μM ATP; for Ratio* (BRG1 IC50 (μM) divided by BRM IC50 (μM)): selectivity ratio BRG1 IC50 / BRM IC50
[2] = target: BRG-1 (Homo sapiens, UniProt P51532); assay: ATPase catalytic activity of BRG-1, ADP-Glo in vitro biochemical assay; conditions: read-out: BRG1 IC50, 30 nM BRG-1, 400 μM ATP
[3] = ATPase catalytic activity, ADP-Glo

Chains of the proteins cited; added tags and fusions are not shown.
UniProt P51531, whole entry: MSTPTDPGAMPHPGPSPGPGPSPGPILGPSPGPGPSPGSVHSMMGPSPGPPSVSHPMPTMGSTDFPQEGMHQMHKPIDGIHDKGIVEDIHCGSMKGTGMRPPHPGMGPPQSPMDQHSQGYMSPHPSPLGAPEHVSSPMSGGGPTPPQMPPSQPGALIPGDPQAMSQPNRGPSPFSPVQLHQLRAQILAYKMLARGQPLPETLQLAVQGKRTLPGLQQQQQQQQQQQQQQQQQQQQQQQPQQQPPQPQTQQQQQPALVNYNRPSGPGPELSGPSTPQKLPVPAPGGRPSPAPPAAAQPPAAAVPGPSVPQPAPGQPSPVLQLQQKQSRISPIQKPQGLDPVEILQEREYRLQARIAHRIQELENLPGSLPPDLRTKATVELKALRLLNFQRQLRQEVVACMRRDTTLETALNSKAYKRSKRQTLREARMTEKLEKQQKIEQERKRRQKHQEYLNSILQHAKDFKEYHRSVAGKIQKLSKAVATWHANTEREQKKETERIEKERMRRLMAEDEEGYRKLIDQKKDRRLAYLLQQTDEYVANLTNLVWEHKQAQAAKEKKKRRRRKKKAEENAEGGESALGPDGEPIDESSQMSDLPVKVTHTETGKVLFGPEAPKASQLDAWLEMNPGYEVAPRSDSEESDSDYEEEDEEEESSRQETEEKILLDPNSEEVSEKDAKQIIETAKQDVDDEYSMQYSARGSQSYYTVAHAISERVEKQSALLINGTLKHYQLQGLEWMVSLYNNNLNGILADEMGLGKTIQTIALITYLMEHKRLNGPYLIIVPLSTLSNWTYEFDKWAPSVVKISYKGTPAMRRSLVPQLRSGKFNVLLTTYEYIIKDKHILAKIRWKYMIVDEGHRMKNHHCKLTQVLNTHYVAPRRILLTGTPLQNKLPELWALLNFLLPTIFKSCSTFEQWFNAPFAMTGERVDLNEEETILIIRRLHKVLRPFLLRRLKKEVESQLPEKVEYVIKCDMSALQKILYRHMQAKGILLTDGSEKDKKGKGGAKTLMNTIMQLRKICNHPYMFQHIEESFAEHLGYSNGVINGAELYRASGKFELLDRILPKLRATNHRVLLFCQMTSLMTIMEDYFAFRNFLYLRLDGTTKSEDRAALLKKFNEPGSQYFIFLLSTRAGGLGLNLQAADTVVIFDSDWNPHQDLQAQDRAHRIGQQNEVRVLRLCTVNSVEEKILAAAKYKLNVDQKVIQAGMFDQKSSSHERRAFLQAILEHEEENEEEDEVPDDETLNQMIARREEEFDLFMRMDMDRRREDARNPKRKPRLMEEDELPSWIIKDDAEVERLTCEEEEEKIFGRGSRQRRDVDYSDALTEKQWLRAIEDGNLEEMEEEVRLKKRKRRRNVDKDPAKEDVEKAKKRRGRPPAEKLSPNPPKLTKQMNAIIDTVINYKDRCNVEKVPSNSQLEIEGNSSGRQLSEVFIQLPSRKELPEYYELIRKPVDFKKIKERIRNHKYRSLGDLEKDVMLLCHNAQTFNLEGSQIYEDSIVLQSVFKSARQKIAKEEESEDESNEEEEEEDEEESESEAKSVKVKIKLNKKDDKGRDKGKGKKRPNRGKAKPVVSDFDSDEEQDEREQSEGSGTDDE
UniProt P51532, whole entry: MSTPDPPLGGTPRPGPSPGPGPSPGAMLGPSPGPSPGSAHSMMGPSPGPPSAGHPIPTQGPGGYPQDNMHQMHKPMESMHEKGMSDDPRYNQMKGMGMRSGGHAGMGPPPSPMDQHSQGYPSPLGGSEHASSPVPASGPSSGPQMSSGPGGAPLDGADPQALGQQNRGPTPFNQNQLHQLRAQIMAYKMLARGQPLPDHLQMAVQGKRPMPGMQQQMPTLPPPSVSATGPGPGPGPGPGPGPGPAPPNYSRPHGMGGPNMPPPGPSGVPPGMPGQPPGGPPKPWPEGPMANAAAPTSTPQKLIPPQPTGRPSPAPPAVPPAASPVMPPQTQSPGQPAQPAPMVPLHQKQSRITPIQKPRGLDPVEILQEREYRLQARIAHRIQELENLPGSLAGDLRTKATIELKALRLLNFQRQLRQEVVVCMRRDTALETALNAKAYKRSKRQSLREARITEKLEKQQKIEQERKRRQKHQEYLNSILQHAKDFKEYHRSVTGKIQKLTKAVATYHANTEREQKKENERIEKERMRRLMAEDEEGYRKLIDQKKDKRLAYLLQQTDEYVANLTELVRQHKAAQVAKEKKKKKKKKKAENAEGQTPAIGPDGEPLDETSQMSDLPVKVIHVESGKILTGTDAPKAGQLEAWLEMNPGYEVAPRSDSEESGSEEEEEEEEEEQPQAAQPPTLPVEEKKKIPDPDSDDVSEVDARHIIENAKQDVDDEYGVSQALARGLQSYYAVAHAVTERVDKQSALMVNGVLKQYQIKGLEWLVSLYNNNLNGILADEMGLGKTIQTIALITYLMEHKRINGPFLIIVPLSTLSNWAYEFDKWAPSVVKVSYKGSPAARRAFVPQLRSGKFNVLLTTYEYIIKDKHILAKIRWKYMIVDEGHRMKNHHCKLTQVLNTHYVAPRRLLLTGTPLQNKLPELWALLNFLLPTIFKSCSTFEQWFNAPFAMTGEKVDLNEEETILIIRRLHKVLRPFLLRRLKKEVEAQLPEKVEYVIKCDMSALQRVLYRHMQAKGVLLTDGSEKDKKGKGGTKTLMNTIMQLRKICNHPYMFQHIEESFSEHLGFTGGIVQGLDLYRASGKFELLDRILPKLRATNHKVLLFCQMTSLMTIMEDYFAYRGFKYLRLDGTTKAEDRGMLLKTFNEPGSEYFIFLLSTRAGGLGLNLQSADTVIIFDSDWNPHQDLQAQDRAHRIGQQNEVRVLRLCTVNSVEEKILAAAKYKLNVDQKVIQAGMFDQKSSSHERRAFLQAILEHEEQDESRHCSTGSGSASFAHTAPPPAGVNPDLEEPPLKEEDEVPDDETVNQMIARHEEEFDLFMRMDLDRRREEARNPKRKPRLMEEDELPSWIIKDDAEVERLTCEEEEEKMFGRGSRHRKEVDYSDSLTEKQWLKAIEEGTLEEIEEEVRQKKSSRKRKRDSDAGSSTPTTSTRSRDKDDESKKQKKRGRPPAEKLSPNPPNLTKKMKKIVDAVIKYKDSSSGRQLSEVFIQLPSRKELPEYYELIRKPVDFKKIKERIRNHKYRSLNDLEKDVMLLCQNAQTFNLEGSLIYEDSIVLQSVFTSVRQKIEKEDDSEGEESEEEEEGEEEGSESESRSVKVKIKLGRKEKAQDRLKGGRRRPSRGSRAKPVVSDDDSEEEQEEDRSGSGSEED

| Structure (SMILES) | IC50 ([1]; ADP-Glo ATPase assay) | Ratio* (BRG1 IC50 (μM) divided by BRM IC50 (μM)) [1] | IC50 ([2]; ADP-Glo ATPase assay) | Ratio* ([1]; ratio of BRG1 IC50 to BRM IC50) | IC50 [1, 3] | IC50 [2, 3] | Ratio* ([1]; ratio BRG1 IC50 / BRM IC50) |
| --- | --- | --- | --- | --- | --- | --- | --- |
| O=C(NCc1cc2nc(-c3cccc(C4CC4)c3)ccc2cn1)c1cnc2c(c1)S(=O)(=O)CCOC2 | 148 nM | 10.29 | 1520 nM | – | – | – | – |
| C[C@@H]1CN(c2cccc(-c3ccc4cnc(CNC(=O)c5cc(F)c6c(c5)S(=O)(=O)[C@@H](C)COC6)cc4c3)n2)C[C@H](C)O1 | – | – | – | 1.90 | 20 nM | 38.1 nM | – |
| CN1CCc2ccc(-c3ccc4cnc(CNC(=O)c5ccc6c(c5)S(=O)(=O)CCOC6)cc4n3)cc21 | 135 nM | 5.56 | 751 nM | – | – | – | – |
| C[C@@H]1CN(c2cccc(-c3ccc4cnc(CNC(=O)c5ccc6c(c5)S(=O)(=O)[C@@H](C)COC6)cc4c3)n2)C[C@H](C)O1 | – | – | – | 2.15 | 11 nM | 23.6 nM | – |
| C[C@@H]1CN(c2cccc(-c3ccc4cnc(CNC(=O)c5cnc6c(c5)S(=O)(=O)CCC5C6C5(F)F)cc4n3)n2)C[C@H](C)O1 (stereo partly drawn) | 19.7 nM | – | 43.5 nM | – | – | – | 2.21 |
| CC1CCN(C)c2nc(-c3ccc4cnc(CNC(=O)c5ccc6c(c5)S(=O)(=O)CCOC6)cc4n3)ccc21 (stereo not drawn) | – | – | – | 18.38 | 38.8 nM | 713 nM | – |
| C[C@@H]1CN(c2cccc(-c3ccc4cnc(CNC(=O)c5ccc6c(c5)S(=O)(=O)CCCCO6)cc4n3)n2)C[C@H](C)O1 | – | – | – | 6.24 | 9.9 nM | 61.6 nM | – |
| CN(C)c1ccc2c(n1)N(c1ccc3cnc(CNC(=O)c4ccc5c(c4)S(=O)(=O)CCOC5)cc3n1)CCC2 | – | – | – | 8.59 | 408 nM | 3500 nM | – |
| C[C@@H]1CN(c2cccc(-c3ccc4cnc(CNC(=O)c5ccc6c(c5)S(=O)(=O)C5(CC5)COC6)cc4n3)n2)C[C@H](C)O1 | 48.2 nM | – | 1080 nM | – | – | – | 22.41 |
| O=C(NCc1cc2nc(-c3cccc(N4CCC4)c3)ccc2nn1)c1ccc2c(c1)S(=O)(=O)CCOC2 | – | – | – | 18.06 | 13.9 nM | 251 nM | – |
| C[C@@H]1CN(c2cccc(-c3ccc4nnc(CNC(=O)c5ccc6c(c5)S(=O)(=O)CCOC6)cc4n3)c2)C[C@H](C)O1 | – | – | – | 12.46 | 5.8 nM | 72.4 nM | – |
| CN1CCc2cc(-c3ccc4cnc(CNC(=O)c5ccc6c(c5)S(=O)(=O)CCOC6)cc4n3)ccc21 | 236 nM | 3.06 | 722 nM | – | – | – | – |
| C[C@H]1COCc2ccc(C(=O)NCc3cc4nc(-c5cc(F)cc(OC(F)F)n5)ccc4cn3)cc2S1(=O)=O | – | – | – | 31.69 | 52.9 nM | 1680 nM | – |
| CC1CCc2cccnc2N1c1ccc2cnc(CNC(=O)c3ccc4c(c3)S(=O)(=O)CCOC4)cc2n1 (stereo not drawn) | – | – | – | 6.63 | 258 nM | 1710 nM | – |

From patent US20230416248A1, “COMPOUNDS AND USES THEREOF” (Foghorn Therapeutics Inc., priority 2020, published 2023)
